From ChEMBL document CHEMBL5325495, “Synthesis and anti-cancer potential of potent peripheral MAOA inhibitors designed to limit blood:brain penetration” (Bioorg Med Chem, 2023) come the findings set out here.

By UniProt entry, the sequences of proteins in these tests, tags left out.
UniProt P21397, whole entry: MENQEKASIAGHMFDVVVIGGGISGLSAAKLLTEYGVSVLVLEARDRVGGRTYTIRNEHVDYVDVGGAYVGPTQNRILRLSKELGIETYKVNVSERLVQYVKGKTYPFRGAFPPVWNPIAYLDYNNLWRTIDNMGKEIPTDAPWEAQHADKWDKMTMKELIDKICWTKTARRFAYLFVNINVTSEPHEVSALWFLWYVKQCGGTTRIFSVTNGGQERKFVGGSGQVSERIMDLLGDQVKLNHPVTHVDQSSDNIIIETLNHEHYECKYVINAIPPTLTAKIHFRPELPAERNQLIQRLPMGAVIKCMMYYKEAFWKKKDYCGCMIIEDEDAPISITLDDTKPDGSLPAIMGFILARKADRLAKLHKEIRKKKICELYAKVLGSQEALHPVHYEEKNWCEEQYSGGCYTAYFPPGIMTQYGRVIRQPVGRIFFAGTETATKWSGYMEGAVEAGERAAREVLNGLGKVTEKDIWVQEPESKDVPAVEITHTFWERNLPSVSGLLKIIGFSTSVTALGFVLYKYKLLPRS

By IC50 is commonly meant the concentration that gives 50% inhibition.

This experiment deals with Amine oxidase [flavin-containing] A (Homo sapiens, UniProt P21397). Description: Inhibition of recombinant human MAO-A expressed in baculovirus infected BTI insect cells.

Molecules are shown by their SMILES.

On to `NNCCc1ccccc1` [PHENELZINE], for which the IC50 is 1500 nM.
